Laboratory results from patent US9377466B2, “Compounds and methods” (Modpro AB, priority 2010, dated 2016).

How the values were obtained:
D-dimer = conditions: literature; cited from earlier work
D-dimer protein = target: T1, D-dimer protein (Homo sapiens, UniProt P02679); experiment: SPR surface competition assay with GPRP
T1 sequence (P02679 114-432 limits assumed): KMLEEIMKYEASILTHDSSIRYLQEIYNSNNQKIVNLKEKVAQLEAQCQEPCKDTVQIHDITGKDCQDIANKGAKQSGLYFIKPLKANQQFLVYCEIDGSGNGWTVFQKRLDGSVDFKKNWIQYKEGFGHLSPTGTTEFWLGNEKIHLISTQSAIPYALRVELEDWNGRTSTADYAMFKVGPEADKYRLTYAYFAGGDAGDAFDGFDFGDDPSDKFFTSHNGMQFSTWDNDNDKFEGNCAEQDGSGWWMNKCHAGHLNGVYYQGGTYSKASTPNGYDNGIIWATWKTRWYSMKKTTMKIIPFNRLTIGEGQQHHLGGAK
T1 sequence (P02675 164-491 partner limits assumed): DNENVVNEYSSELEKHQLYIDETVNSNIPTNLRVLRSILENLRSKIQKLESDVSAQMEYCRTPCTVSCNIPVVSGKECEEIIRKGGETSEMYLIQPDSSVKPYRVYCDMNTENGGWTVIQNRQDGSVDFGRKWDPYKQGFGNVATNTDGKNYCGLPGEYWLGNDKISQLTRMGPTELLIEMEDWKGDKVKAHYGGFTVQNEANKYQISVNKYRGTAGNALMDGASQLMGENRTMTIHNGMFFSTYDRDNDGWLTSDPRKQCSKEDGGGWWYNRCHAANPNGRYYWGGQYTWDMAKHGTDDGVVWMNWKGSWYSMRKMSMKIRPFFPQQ
T1 sequence (P02671 130-216 partner limits assumed): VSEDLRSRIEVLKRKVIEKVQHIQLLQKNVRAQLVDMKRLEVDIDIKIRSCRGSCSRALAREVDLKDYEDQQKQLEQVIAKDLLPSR

Q: Which Kd (D-dimer) does the source give for `N=C(N)NCCC[C@H](NC(=O)[C@@H]1CCCN1C(=O)CN)C(=O)N1CCC[C@H]1C(=O)O` [GPRP] here?
A: 25 µM

Q: What about the IC50 (D-dimer protein) of the same compound?
A: ~50 µM
